Hits are enriched below; roughly 2.3% of the tested compounds scored in any of these assays.
A549 tox = counter-screen for Nrf2 inhibitors: cytotoxicity in A549 cells. 390,000 compounds, 0.16% hits. Potency, µM (doses to about 46 µM), without a hit: at the highest dose activity change, negative = cytotoxicity, hits mostly inhibitors. AID 504648. A549 ARE-Fluc cells, CellTiter-Fluor viability, 18-24 h; also: potency is read from the fitted curve at half-maximal effect; % is scaled to controls: 0 for no effect and ±100 for the full control effect
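A549 ARE-Fluc cells in 5% FBS OPTI-MEM, 5000 cells/well, rested 2 h then exposed to compounds in concentration-response for 18-24 h at 37 °C. Viability by CellTiter-Fluor fluorescence (Ex 405/Em 525) after 30 min; luciferase luminescence (BugLite, 15 min, RT) read afterwards.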
Nrf2 activator = Nrf2 pathway activation; AREc32 ARE-luciferase reporter (MCF7-derived line), luminescence, 24 h; 410,000 compounds, 0.31% hits; Potency, µM (doses to about 46.1 µM), inactives show top-dose activation, usual class: activators; AID 624171; also: potency is read from the fitted curve at half-maximal effect; % of control where 0% means no effect; nearly all actives have a fitted effect of over 65% in size
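ARE-driven firefly luciferase activity in AREc32 cells measured after a 24 hr compound exposure at 37 deg C, using Steady-Glo reagent and a 30 min room-temperature hold.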
miR-21 FLuc = raises the signal of a miR-21 reporter | HeLa miR-21 FLuc reporter, luciferase, 48 h | 340,000 tested, under 10 active | Potency, µM (titrated, usually from 38.3 µM), inactives show at the highest dose reporter change, positive = more light; active = well fitted rising curve with a large enough effect; inconclusive = small, poorly fitted or top-dose-only effect; inactive = no such curve, though single readings can be large or run the other way;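 further: % of control where 0% means no effect; miR-21 action dims this reporter so a rising signal means less miR-21 action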
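Compounds were titrated across several concentrations (up to approximately 40 uM) and incubated 48 hours with HeLa miR-21-FLuc reporter cells (miR-21 target sequence downstream of FLuc, endogenous miR-21). Readout was firefly luciferase luminescence after lytic detection reagent.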
Nrf2 block = Nrf2 pathway inhibition; A549 ARE-Fluc reporter, luciferase luminescence, 18-24 h; AID 504444; 360,000 compounds, 2.1% hits; Potency, µM (doses to about 46 µM), inactives show at the highest dose activity change, negative = inhibition, hits mostly inhibitors; also: potency is read from the fitted curve at half-maximal effect; % is scaled to controls: 0 for no effect and ±100 for the full control effect; nearly all actives have a fitted effect of over 60% in size
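Reporter: ARE-Fluc in A549. Exposure: 18-24 h, 37 °C, 5% CO2, 5% FBS OPTI-MEM. Readouts: fluorescent cytotoxicity (CellTiter-Fluor), then luminescent Nrf2 signal after BugLite.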
Mito fusion act = inhibitors of mitochondrial division or activators of mitochondrial fusion | S. cerevisiae fusion-defective mutant growth rescue, CellTiterGlo 48 h | 320,000 compounds, 0.23% hits | Potency, µM (top dose mostly 46.1 µM), inactives show top-dose growth rescue (activation), hits mostly activators; also: potency is read from the fitted curve at half-maximal effect; % of control where 0% means no effect; nearly all actives have a fitted effect of over 45% in size
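Read-out: ATP-based luminescence (CellTiterGlo, 10 min ambient) reporting growth of fusion-defective ts yeast after 48 hours at 37C on glycerol/ethanol YPEG medium in the presence of compound.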
* hit, by the source's call; [ ] = remark or other dose. Unless noted, calls follow the shape of the dose curve; as a rule, active = well fitted curve in the direction sought with a large enough effect; inconclusive = small, poorly fitted or top-dose-only effect, or another doubt; inactive = no such curve, though single readings can be large; an effect the other way counts as inactive or inconclusive.

For COC(=O)c1sc(NC(=O)c2cc(-c3ccccc3)nc3ccccc23)c(C#N)c1C the results were A549 tox inconclusive, Nrf2 activator 5%, miR-21 FLuc 26%, Nrf2 block 9.2µM* and Mito fusion act 4%.
`COc1ccc(C2=Nn3c(nnc3-c3cccc(OC)c3OC)SC2)cc1OC` gave A549 tox -6% and Nrf2 block inconclusive.
For COc1ccccc1C(=O)NCC(=O)N=Nc1c(O)n(C(C)C)c2ccccc12 the results were A549 tox -15%, Nrf2 activator 0%, miR-21 FLuc -19%, Nrf2 block 23µM* and Mito fusion act -12%.
For CC(C)n1c(O)c(N=NC(=O)CNC(=O)Cc2ccc(Cl)cc2)c2ccccc21 the results were A549 tox -6%, Nrf2 activator 0%, miR-21 FLuc -6%, Nrf2 block -20% and Mito fusion act 8%.
`Fc1ccc(-c2csc(=Nc3cccc(C(F)(F)F)c3)n2Cc2ccc3c(c2)OCO3)cc1` gave A549 tox 12%, Nrf2 activator inconclusive, miR-21 FLuc 0% and Nrf2 block inconclusive.
COc1ccc(/C=C/C(=O)NCc2cn(C)nc2C)cc1COc1ccc(Br)cc1 was read as A549 tox -24%, Nrf2 activator 0%, miR-21 FLuc 4%, Nrf2 block 18µM* and Mito fusion act 5%.
For Cc1ccc(C)c(Nc2nnc(-c3ccc(C)c(S(=O)(=O)NCC4CCCO4)c3)c3ccccc23)c1 (stereo not drawn) the results were A549 tox -12%, Nrf2 activator 5%, miR-21 FLuc inconclusive and Nrf2 block 23µM*.
Screening COc1ccccc1OCC(=O)Nc1ccccc1C(=O)NCc1ccco1 returned A549 tox 0%, Nrf2 activator 23%, miR-21 FLuc -7%, Nrf2 block -5% and Mito fusion act 10%.
For N#Cc1ccccc1NC(=O)c1ccccc1OCC(=O)NCc1ccco1 the results were A549 tox 10%, Nrf2 activator 11µM*, miR-21 FLuc -4%, Nrf2 block 0% and Mito fusion act -2%.
Screening O=C(O)c1cc(O)ccc1O returned A549 tox 0%, Nrf2 activator 6% and Nrf2 block 10%.

Next section; it opens with the 3 that closed the last part.
Screening COc1ccccc1OCC(=O)Nc1ccccc1C(=O)NCc1ccco1 returned A549 tox 0%, Nrf2 activator 23%, miR-21 FLuc -7%, Nrf2 block -5% and Mito fusion act 10%.
For N#Cc1ccccc1NC(=O)c1ccccc1OCC(=O)NCc1ccco1 the results were A549 tox 10%, Nrf2 activator 11µM*, miR-21 FLuc -4%, Nrf2 block 0% and Mito fusion act -2%.
Screening O=C(O)c1cc(O)ccc1O returned A549 tox 0%, Nrf2 activator 6% and Nrf2 block 10%.
O=C(O)C1=CC(=C(c2ccc(O)c(C(=O)O)c2)c2ccc(O)c(C(=O)O)c2)C=CC1=O was read as Mito fusion act 13µM*.
`Cc1ccc(C)c(Cn2c(=O)n(CC3CCC(C(=O)N4CCOCC4)CC3)c(=O)c3sccc32)c1` (stereo not drawn) gave A549 tox -3%, Nrf2 activator -1%, miR-21 FLuc 2% and Nrf2 block -4%.
For Cc1ccc(C(=O)c2cc([N+](=O)[O-])ccc2N2CCCCC2)cc1 the results were A549 tox 16µM*, Nrf2 activator 3%, miR-21 FLuc 19%, Nrf2 block inconclusive and Mito fusion act 30%.
CCOc1ccc(NC(=O)c2c(NC(=O)c3ccncc3)sc3c2CCC(C(C)(C)C)C3)cc1 (stereo not drawn) was read as A549 tox -1%, Nrf2 activator 0%, miR-21 FLuc -2% and Nrf2 block 11%.
For CC(C)(C)C1CCc2c(sc(NC(=O)CCC(=O)O)c2C(=O)Nc2ccccc2C(F)(F)F)C1 (stereo not drawn) the results were A549 tox inconclusive, Nrf2 activator 1%, miR-21 FLuc -25% and Nrf2 block 18µM*.
Screening COc1ccccc1NC(=O)c1c(NC(=O)c2cccs2)sc2c1CCC(C(C)(C)C)C2 (stereo not drawn) returned A549 tox 6%, Nrf2 activator -1%, miR-21 FLuc 0% and Nrf2 block 6%.
Screening COc1ccc(NC(=O)c2c(NC(=O)c3ccncc3)sc3c2CCC(C(C)(C)C)C3)cc1 (stereo not drawn) returned A549 tox -15%, Nrf2 activator 1%, miR-21 FLuc 1% and Nrf2 block 18µM*.
O=C1C(=C(c2ccccc2)c2ccccc2)Nc2ccccc21 was read as A549 tox inconclusive, Nrf2 activator 13µM*, miR-21 FLuc 21%, Nrf2 block inconclusive and Mito fusion act 25%.
`CC(C)C[C@@H]1NC(=O)[C@H](Cc2ccccc2)N(C)C(=O)[C@H](C)NC(=O)c2ccccc2NC(=O)[C@H](Cc2ccc(O)cc2)N(C)C1=O` gave A549 tox inconclusive, Nrf2 activator 4%, miR-21 FLuc inconclusive, Nrf2 block 23µM* and Mito fusion act -11%.
Screening CC(C)CC1NC(=O)N(CC(=O)N2c3ccccc3NC(=O)C2(C)C)C1=O (stereo not drawn) returned A549 tox 7%, Nrf2 activator -1%, miR-21 FLuc 0%, Nrf2 block -10% and Mito fusion act -5%.
`CCOc1cc(/C=C/c2ccc3cccc([N+](=O)[O-])c3n2)ccc1O` gave A549 tox inconclusive, Nrf2 activator inconclusive, miR-21 FLuc -12%, Nrf2 block 23µM* and Mito fusion act 5%.
Screening COc1ccc(/C=C/c2cc(C(F)(F)F)[nH]c(=O)n2)cc1OC returned A549 tox -11%, Nrf2 activator inconclusive, miR-21 FLuc -12%, Nrf2 block 18% and Mito fusion act 4%.
For CCOc1cc(/C=C/c2cc(C(F)(F)F)[nH]c(=O)n2)ccc1O the results were A549 tox inconclusive, Nrf2 activator 14%[9.22 µM], miR-21 FLuc 15%, Nrf2 block 21µM* and Mito fusion act -7%.
COc1cc2ccccc2cc1C(=O)N1CCN(c2nc3c(F)cc(F)cc3s2)CC1 was read as A549 tox 7%, Nrf2 activator 0% and miR-21 FLuc 7%.
`Cc1cc2c(c(=O)n1Cc1ccccc1)C1O[C@](c3ccsc3)(Cc3cc(C#N)ccc31)O2` gave miR-21 FLuc -5%[7.66 µM] and Mito fusion act -5%[9.22 µM].
For O=c1[nH]nc(Sc2ncnc3sccc23)n1CCc1ccccc1 the results were A549 tox -5%, Nrf2 activator inconclusive, miR-21 FLuc inconclusive, Nrf2 block 15µM* and Mito fusion act 4%.
For CC1=C(C(=O)Nc2ccc(C)cc2C)C(c2ccccc2)n2ncc(C(=O)Nc3ccccc3)c2N1 (stereo not drawn) the results were A549 tox -5%, Nrf2 activator 0%, miR-21 FLuc 18% and Nrf2 block -15%.
`COc1ccc(-c2cc(=O)oc3c(C)c(OC(C)C(C)=O)ccc23)cc1` (stereo not drawn) gave A549 tox 1%, Nrf2 activator 1%, miR-21 FLuc -15%, Nrf2 block inconclusive and Mito fusion act 22µM*.
